Measured values reported in patent US10328077B2 (CELGENE CORPORATION, priority 2016, dated 2019).

System: LXFS 573 SCLC patient-derived xenograft
Assay: LXFS 573 SCLC PDX, Compound A alone and in combination with etoposide (TGD)
Conditions: Etoposide 24 mg/kg/day SC days 1-3 + vehicle; Day 133; N=8

In the case of etoposide, the “SS, number of study survivors” value is reported as 0.
